Bioassay records: PubChem BioAssay, National Center for Advancing Translational Sciences (NCATS)
An excerpt weighted towards active compounds, which were near 16% of everything screened.
TDP1 inh – TDP1 (human) enzyme inhibition. recombinant TDP1, AlphaScreen DNA substrate cleavage. Q9NUW8. Potency, µM (series often up to 130 µM), inactives show at the highest dose activity change, negative = inhibition, usual class: inhibitors. AID 485290. hit rate 0.28% among 350,000; also: potency is read from the fitted curve at half-maximal effect; % is scaled to controls: 0 for no effect and ±100 for the full control effect; nearly all actives have a fitted effect of over 40% in size
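AlphaScreen read-out: signal falls as enzyme removes the 3' tyrosine-FITC from a 5'-biotinylated DNA oligo (15 nM, 5 min, RT). Enzyme was E. coli-made recombinant Tdp1 at 1 nM, exposed to compound for 15 min beforehand; beads 10 ug/ml, 10 min.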
uPA generation – inhibitors of cell surface uPA generation. hit rate 0.31% among 330,000. Potency, µM (titrated, usually from 38.3 µM), inactives show at the highest dose activity change, negative = inhibition, hits mostly inhibitors. cell surface uPA generation assay, qHTS; active = well fitted inhibition curve with a large enough effect; inconclusive = small, poorly fitted or top-dose-only effect; inactive = no such curve, though single readings can be large or run the other way; tested in mouse RAW 264.7 cells; also: potency is read from the fitted curve at half-maximal effect; % is scaled to controls: 0 for no effect and ±100 for the full control effect; nearly all actives have a fitted effect of over 55% in size
miR-21 reporter – miR-21 reporter, rising signal | HeLa miR-21 FLuc reporter, luciferase, 48 h | Potency, µM (top dose mostly 38.3 µM), inactives show at the top dose reporter change, positive = more light | 340,000 tested, under 10 active | AID 2288; active = well fitted rising curve with a large enough effect; inconclusive = small, poorly fitted or top-dose-only effect; inactive = no such curve, though single readings can be large or run the other way;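 further: % of control where 0% means no effect; miR-21 action dims this reporter so a rising signal means less miR-21 action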
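Luminescence from a firefly luciferase reporter carrying a miR-21 binding site downstream, stably expressed under a CMV promoter in HeLa cells that make miR-21 endogenously, reports miRNA modulation after 48 h compound exposure up to approximately 40uM final.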
TDP1 cell CPT – DT40-hTDP1 cell growth loss with CPT; hit rate 12% among 420,000; AID 686979; chicken DT40 Tdp1-/-;hTDP1 cells + 20 nM CPT, ATP luminescence, 48 h; Potency, µM (doses to about 46.2 µM), inactives show top-dose activity change, negative = growth inhibition, most hits filed as inhibitors; also: potency is read from the fitted curve at half-maximal effect; % is scaled to controls: 0 for no effect and ±100 for the full control effect; nearly all actives have a fitted effect of over 55% in size
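Cell growth measured by CellTiter-Glo luminescence after a minimum 48 h, 37 C compound exposure with 20 nM CPT in Tdp1-knockout DT40 cells stably expressing hTDP1, seeded 400/well; qHTS titration format.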
TDP1 cell noCPT – qHTS for Inhibitors of human tyrosyl-DNA phosphodiesterase 1 (TDP1): qHTS in cells in absence of CPT; DT40 Tdp1-/- hTDP1 cells, no CPT, ATP luminescence, 48 h; hit rate 15% among 420,000; Potency, µM (titrated, usually from 46.2 µM), without a hit: top-dose activity change, negative = growth inhibition, hits mostly inhibitors; also: potency is read from the fitted curve at half-maximal effect; % is scaled to controls: 0 for no effect and ±100 for the full control effect; nearly all actives have a fitted effect of over 55% in size
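A cellular qHTS used chicken DT40 cells lacking endogenous Tdp1 but carrying stably transfected human TDP1. Compounds were applied without camptothecin, and cell growth kinetics were judged by ATP-dependent luminescence after ≥48 hr.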
* = called active by the depositor; [ ] = remark or other dose. Unless noted, calls follow the shape of the dose curve; as a rule, active = well fitted curve in the direction sought with a large enough effect; inconclusive = small, poorly fitted or top-dose-only effect, or another doubt; inactive = no such curve, though single readings can be large; an effect the other way counts as inactive or inconclusive.

The opening two entries as a preview:
CCCCNC(=O)c1nc(C2CCN(S(=O)(=O)c3ccc(C(F)(F)F)cc3)CC2)oc1-c1ccccc1 was read as TDP1 cell CPT 5.8µM* and TDP1 cell noCPT 7.31µM*.
CCCCNC(=O)C1CCN(C(=O)C2CCN(S(=O)(=O)c3ccc(C)cc3)CC2)CC1 was read as TDP1 inh 1.5%, uPA generation -4.4%, miR-21 reporter -2.2%, TDP1 cell CPT -21.0% and TDP1 cell noCPT 0.1%.

The list itself (from the top)
CCCCNC(=O)c1nc(C2CCN(S(=O)(=O)c3ccc(C(F)(F)F)cc3)CC2)oc1-c1ccccc1 was read as TDP1 cell CPT 5.8µM* and TDP1 cell noCPT 7.31µM*.
CCCCNC(=O)C1CCN(C(=O)C2CCN(S(=O)(=O)c3ccc(C)cc3)CC2)CC1 was read as TDP1 inh 1.5%, uPA generation -4.4%, miR-21 reporter -2.2%, TDP1 cell CPT -21.0% and TDP1 cell noCPT 0.1%.
`CCCCNC(=O)c1nc(C2CCN(S(=O)(=O)c3ccc(S(C)(=O)=O)cc3)CC2)oc1-c1ccccc1` gave TDP1 cell CPT 5.8µM* and TDP1 cell noCPT 13µM*.
Screening Oc1ccccc1-c1nnc(COc2ccc(Cl)cc2Cl)o1 returned TDP1 inh -14.1%, uPA generation inconclusive, miR-21 reporter -51.3%, TDP1 cell CPT 20.6µM* and TDP1 cell noCPT inconclusive.
NC(=O)c1ccccc1OCc1nnc(-c2ccccc2Br)o1 was read as TDP1 inh 1.2%, uPA generation 1.7%, miR-21 reporter -50.2%, TDP1 cell CPT 23.1µM* and TDP1 cell noCPT 29.1µM*.
Oc1ccccc1-c1nnc(COc2ccccc2)o1 was read as TDP1 inh -7.4%, uPA generation -8.6%, miR-21 reporter -44.9%, TDP1 cell CPT inconclusive and TDP1 cell noCPT -3.4%.
`O=Cc1ccc(OCc2nnc(-c3ccccc3Br)o2)cc1` gave TDP1 inh 2.9%[0.0935 µM], uPA generation 3.5%, miR-21 reporter -36.0%, TDP1 cell CPT 8.5% and TDP1 cell noCPT -10.3%.
Screening CCN(CC)Cc1c(NC(=O)c2ccccc2)sc(C)c1C returned TDP1 inh 3.7%, uPA generation -4.6%, miR-21 reporter -38.3%, TDP1 cell CPT -4.3% and TDP1 cell noCPT inconclusive.
`CCOC(=O)c1c(NC(=O)c2ccccc2)sc2c(O)c(CN(CC)CC)ccc12` gave TDP1 inh 3.9%, miR-21 reporter -4.0%, TDP1 cell CPT 23.1µM* and TDP1 cell noCPT 18.4µM*.
`Cc1ccc(O)c(N=Nc2nccs2)c1` gave TDP1 inh 11.9%, uPA generation 2.24µM*, TDP1 cell CPT 1.16µM* and TDP1 cell noCPT 0.92µM*.
Screening CC(=O)Nc1cccc(S(=O)(=O)N2CCCCCC2)c1 returned TDP1 inh 2.6%, uPA generation -2.8%, miR-21 reporter -11.4%, TDP1 cell CPT -2.8% and TDP1 cell noCPT -1.2%.
For CN=C(NC#N)Nc1ccc(C2=NNC(=O)C[C@@H]2C)cc1 the results were TDP1 inh 8.6%[56.1 µM].
For Cc1cc(C)n2c(Nc3c(C)cccc3C)c(-c3cccnc3)nc2n1 the results were TDP1 cell CPT 5.7% and TDP1 cell noCPT -18.9%.
`Cc1cccc2nc(-c3cccnc3)c(Nc3ccccc3)n12` gave TDP1 inh 4.6%, uPA generation 1.6%, miR-21 reporter 28.3%, TDP1 cell CPT -28.3% and TDP1 cell noCPT inconclusive.
`CCCCNc1c(-c2cccnc2)nc2nc(C)cc(C)n12` gave TDP1 cell CPT inconclusive and TDP1 cell noCPT 11.6µM*.
Cc1cccc2nc(-c3cccnc3)c(NCCC(C)C)n12 was read as TDP1 inh -1.2%, uPA generation 4.5%, miR-21 reporter -14.7%, TDP1 cell CPT 9.2µM* and TDP1 cell noCPT 16.4µM*.
Screening COc1cc2c(cc1OC)CN(C(=O)COc1ccc(C)c(C)c1)CC2 returned TDP1 inh 6.6%, uPA generation -1.5%, miR-21 reporter -0.2%, TDP1 cell CPT inconclusive and TDP1 cell noCPT inconclusive.
Screening COc1ccc(NC(=O)Cn2c(=O)n(Cc3ccc4c(c3)OCO4)c(=O)c3ccc(C(=O)NC4CCCCC4)cc32)cc1 returned TDP1 inh 0.0%, miR-21 reporter 0.1%, TDP1 cell CPT 8.2µM* and TDP1 cell noCPT 7.31µM*.
`Cn1c(=O)c2[nH]c(COc3ccccc3)nc2n(C)c1=O` gave uPA generation -6.6%, TDP1 cell CPT -8.0% and TDP1 cell noCPT inconclusive.
Cn1c(=O)c2[nH]c(CN(Cc3ccccc3)Cc3ccccc3)nc2n(C)c1=O was read as TDP1 inh 4.1%, uPA generation 4.4%, miR-21 reporter 7.8%, TDP1 cell CPT 10.3µM* and TDP1 cell noCPT 14.6µM*.

Two neighbouring compounds out of the list so far:
`Cn1c(=O)c2[nH]c(COc3ccccc3)nc2n(C)c1=O` gave uPA generation -6.6%, TDP1 cell CPT -8.0% and TDP1 cell noCPT inconclusive.
Cn1c(=O)c2[nH]c(CN(Cc3ccccc3)Cc3ccccc3)nc2n(C)c1=O was read as TDP1 inh 4.1%, uPA generation 4.4%, miR-21 reporter 7.8%, TDP1 cell CPT 10.3µM* and TDP1 cell noCPT 14.6µM*.

More compounds follow:
For Cn1c(=O)c2[nH]c(Cc3cccc4ccccc34)nc2n(C)c1=O the results were uPA generation 0.9%, TDP1 cell CPT inconclusive and TDP1 cell noCPT 16.4µM*.
Cn1c(=O)c2[nH]c(CCCCCCCCc3nc4ccccc4[nH]3)nc2n(C)c1=O was read as uPA generation -5.4%, TDP1 cell CPT 7.31µM* and TDP1 cell noCPT 5.17µM*.
For Cn1c(=O)c2[nH]c(CSCc3ccccc3)nc2n(C)c1=O the results were uPA generation 1.7%, TDP1 cell CPT inconclusive and TDP1 cell noCPT inconclusive.
Screening CCN(CC)CCN1C(=O)C(=O)/C(=C(/O)c2ccc(S(=O)(=O)N3CCOCC3)cc2)C1c1ccc(C(C)C)cc1 (stereo not given) returned TDP1 inh 12.0%, uPA generation 0.8%, miR-21 reporter -2.1%, TDP1 cell CPT -7.6% and TDP1 cell noCPT -0.3%.
Screening Cc1cccc(N=C2NC(=O)/C(=C/c3cccn3C)S2)c1C returned uPA generation -1.1%, miR-21 reporter 10.9%, TDP1 cell CPT inconclusive and TDP1 cell noCPT 8.2µM*.
`Cc1ccc(N=C2NC(=O)/C(=C/c3cccn3C)S2)cc1C` gave TDP1 inh 9.4%, uPA generation -4.2%, miR-21 reporter -18.3%, TDP1 cell CPT 20.6µM* and TDP1 cell noCPT 9.2µM*.
Screening Cc1ccc(N=C2NC(=O)/C(=C/c3cccn3C)S2)cc1 returned TDP1 inh 6.0%, uPA generation 2.82µM*, miR-21 reporter -27.1%, TDP1 cell CPT 6.51µM* and TDP1 cell noCPT 4.61µM*.
For CC(C)CN(C1CCS(=O)(=O)C1)S(=O)(=O)c1ccc2ccccc2c1 (stereo not given) the results were TDP1 inh 0.4%, uPA generation -0.4%, TDP1 cell CPT -1.9% and TDP1 cell noCPT inconclusive.
`CCC(OC(=O)C(C)N1C(=O)C(=O)c2ccccc21)C(=O)Nc1ccccc1OC` (stereo not given) gave TDP1 inh 1.8%, uPA generation -5.4%, miR-21 reporter -0.9%, TDP1 cell CPT 4.61µM* and TDP1 cell noCPT 5.8µM*.
`COc1ccccc1NC(=O)C(C(C)C)N1C(=O)c2ccccc2C1=O` (stereo not given) gave uPA generation -5.2%, miR-21 reporter 1.0%, TDP1 cell CPT 1.7% and TDP1 cell noCPT 3.2%.
For Cc1c(Cl)cnc(NC(=O)COC(=O)Cc2coc3ccc4ccccc4c23)c1Cl the results were TDP1 inh 8.1%, uPA generation 8.9%, miR-21 reporter -3.7%, TDP1 cell CPT -0.4% and TDP1 cell noCPT inconclusive.
CC#CC[N+](C)(C)CCCCCCCC was read as uPA generation -10.1%, miR-21 reporter 13.5%, TDP1 cell CPT 11.6µM* and TDP1 cell noCPT 9.2µM*.
